One molecule from patent publication US8501450B2, “Hepatitis C virus variants” (priority 2005, dated 2013) can be followed below.

In the experiment the test system is HCV variant mixture in patient plasma. The experiment is described as follows: Average phenotype for each patient. The settings on record: individual subjects; 450 mg; FU (7-10 days after ETR).

For the molecule `CCC[C@H](NC(=O)[C@@H]1[C@H]2CCC[C@H]2CN1C(=O)[C@@H](NC(=O)[C@@H](NC(=O)c1cnccn1)C1CCCCC1)C(C)(C)C)C(=O)C(=O)NC1CC1` [VX-950], the “Average Phenotype” value worked out at 6.55.
